From publication PMC4610231, “Treatment with a novel oleic-acid–dihydroxyamphetamine conjugation ameliorates non-alcoholic fatty liver disease in obese Zucker rats” (Disease Models & Mechanisms, 2015)
pIC50: −log10 of the molar value.

By UniProt entry, the sequences of proteins in these tests, tags left out. Where a name states a change or a piece, a line headed by the entry shows the natural chain unless it says otherwise.
UniProt Q12809: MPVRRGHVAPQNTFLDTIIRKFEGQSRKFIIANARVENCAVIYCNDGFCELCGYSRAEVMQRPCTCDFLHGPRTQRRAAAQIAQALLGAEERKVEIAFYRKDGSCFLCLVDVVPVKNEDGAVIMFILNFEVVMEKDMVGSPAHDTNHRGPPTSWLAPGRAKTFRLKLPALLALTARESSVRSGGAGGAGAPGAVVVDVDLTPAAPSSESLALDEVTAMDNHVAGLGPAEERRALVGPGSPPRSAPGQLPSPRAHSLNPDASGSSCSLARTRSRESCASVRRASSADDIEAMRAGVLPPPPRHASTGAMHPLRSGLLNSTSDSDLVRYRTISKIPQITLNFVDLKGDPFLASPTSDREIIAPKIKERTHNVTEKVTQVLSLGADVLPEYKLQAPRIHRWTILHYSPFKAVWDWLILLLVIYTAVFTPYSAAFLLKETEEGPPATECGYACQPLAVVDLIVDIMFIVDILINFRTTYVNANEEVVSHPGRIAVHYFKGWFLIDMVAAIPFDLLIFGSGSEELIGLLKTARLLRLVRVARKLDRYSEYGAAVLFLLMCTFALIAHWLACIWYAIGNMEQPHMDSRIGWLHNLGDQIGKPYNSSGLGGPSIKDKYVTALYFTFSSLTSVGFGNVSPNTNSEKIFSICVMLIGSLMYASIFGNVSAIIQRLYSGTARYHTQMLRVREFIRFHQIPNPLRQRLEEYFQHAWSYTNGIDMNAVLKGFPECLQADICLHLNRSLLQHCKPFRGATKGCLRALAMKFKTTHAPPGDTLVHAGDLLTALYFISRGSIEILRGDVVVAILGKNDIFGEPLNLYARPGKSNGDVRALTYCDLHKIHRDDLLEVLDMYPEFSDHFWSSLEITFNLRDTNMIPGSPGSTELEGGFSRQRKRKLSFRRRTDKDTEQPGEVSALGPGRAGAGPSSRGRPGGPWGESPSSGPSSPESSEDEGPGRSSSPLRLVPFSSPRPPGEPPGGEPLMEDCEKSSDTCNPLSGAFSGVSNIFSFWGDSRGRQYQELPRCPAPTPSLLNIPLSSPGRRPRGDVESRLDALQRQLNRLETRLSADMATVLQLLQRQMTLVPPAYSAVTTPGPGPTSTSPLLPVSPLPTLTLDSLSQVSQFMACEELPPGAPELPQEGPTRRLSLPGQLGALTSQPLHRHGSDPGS

Target: T1, human ether-à-go-go related gene (hERG) K+ channel (Homo sapiens, UniProt Q12809)
T1 construct: gene KCNH2
Test: cell-based

CC(C)COCC(CN(Cc1ccccc1)c1ccccc1)N1CCCC1 (stereo not shown) [bepridil]
pIC50: 5.66
